{
  "source": "patent US20180079906A1",
  "about": "“AZACYANINE DYES AND USE THEREOF” (Ecole Polytechnique Fédérale de Lausanne (EPFL), priority 2016, published 2018)",
  "origin": "cited, not measured here",
  "settings": "in water; cited from earlier work",
  "data": [
    {"smiles": "CC1(C)C(/C=C/C=C/C=C/C=C2\\N(CCCCS(=O)(=O)O)c3ccc4ccccc4c3C2(C)C)=[N+](CCCCS(=O)(=O)[O-])c2ccc3ccccc3c21", "note": "[ICG, Indocyanine Green]", "values": [
      {"measurement": "solubility", "result": 1200, "unit": "µM"}
    ]}
  ]
}
